Data as given in patent US6699860B2, “Di-substituted aminomethyl-chroman derivative beta-3 adrenoreceptor agonists” (Bayer Pharmaceuticals Corporation, priority 2000, dated 2004).
Like-named read-outs stand apart in the source and are kept apart here.

The chains behind the UniProt entries cited, without tags or fusion partners.
UniProt P13945, whole entry: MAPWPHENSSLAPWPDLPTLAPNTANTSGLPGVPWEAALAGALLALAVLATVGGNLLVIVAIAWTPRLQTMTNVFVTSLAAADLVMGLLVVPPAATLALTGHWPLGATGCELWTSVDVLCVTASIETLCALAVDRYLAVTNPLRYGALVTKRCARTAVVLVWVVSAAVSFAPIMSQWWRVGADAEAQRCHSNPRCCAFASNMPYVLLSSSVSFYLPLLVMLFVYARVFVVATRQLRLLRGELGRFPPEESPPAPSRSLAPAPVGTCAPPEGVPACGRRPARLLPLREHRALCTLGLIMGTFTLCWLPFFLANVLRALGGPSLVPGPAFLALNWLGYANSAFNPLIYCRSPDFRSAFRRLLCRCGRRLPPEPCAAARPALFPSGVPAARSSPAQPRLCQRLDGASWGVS

Target: human beta-3-adrenergic receptor (Homo sapiens, UniProt P13945)
Experiment: cAMP production (SPA) in CHO cells stably expressing human beta-3-adrenergic receptor, agonist activity
Conditions: read-out: Beta-3 Agonistic Activity, EC50 values, cAMP production in CHO cells expressing human beta-3-adrenergic receptor, compounds binned (≦1 μM or >1 μM)

Row | SMILES | EC50 | EC50 (tested form: HCl)
1 | COCCNc1cc(-c2ccc3c(c2)CC[C@H](CNC[C@H](O)COc2ccccc2)O3)ccc1C(=O)O | ≤ 1000 nM | 
2 | O=C(O)c1ccc(-c2ccc3c(c2)CC[C@H](CNC[C@H](O)CSc2ccccc2)O3)cc1 |  | ≤ 1000 nM
